Assay results taken from PubChem BioAssay AID602449 (Sanford-Burnham Center for Chemical Genomics, 2012).
This is a selection; strong and weak results do not stand in their true shares. Some salts and complexes are drawn in separate pieces, as the source files them; their charges need not balance. Active and inactive are the calls of the source.

assay: blockers of Ca2+-induced mitochondrial swelling – biochemical, isolated mouse mitochondria, absorbance, primary screen (AID 602449); conditions: 30 min, at 10 µM, active compounds read high;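 further: 0% = DMSO wells given calcium and 100% = 1 mM EGTA wells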

SMILES	inhibition
COc1ccc(NP(C)(=O)Oc2ccccc2OC)cc1 (centres undefined)	inactive: 0%
CN(C)CCOC(=O)C(O)(c1ccccc1)C1CCCCC1 (centres undefined)	inactive: 44.5%
COc1ccc(OP(C)(=O)Nc2cccc(Br)c2)cc1 (centres undefined)	inactive: 1.6%
Cc1c(C(c2ccc3c(c2)OCO3)c2c(C)n(C)n(-c3ccccc3)c2=O)c(=O)n(-c2ccccc2)n1C.O=[N+]([O-])c1cc([N+](=O)[O-])c(O)c([N+](=O)[O-])c1	inactive: 0.6%
O=[N+]([O-])c1cc([N+](=O)[O-])c(NCC2CCS(=O)(=O)C2)c([N+](=O)[O-])c1 (centres undefined)	inactive: 1.2%
Cc1cc(-c2cccc3ccccc23)c(C)cn1.O=[N+]([O-])c1cc([N+](=O)[O-])c(O)c([N+](=O)[O-])c1	inactive: 4.6%
O=[N+]([O-])c1ccc(OP2(=O)COCCO2)cc1 (centres undefined)	inactive: -0.2%
CCOP(C)(=S)SCC(=O)NC(C)(CC)C(=O)O (centres undefined)	inactive: -1.3%
CP(=O)(Nc1ccc(SC(F)(F)F)cc1)Oc1ccc(F)cc1 (centres undefined)	inactive: 9.6%
O=[N+]([O-])c1cc([N+](=O)[O-])c(C(F)(F)F)c([N+](=O)[O-])c1O	inactive: -1.8%
Cc1ccccc1NP(C)(=O)Nc1ccccc1C	inactive: -2.4%
CP(=O)(Nc1ccc2c(c1)OCCO2)Oc1ccccc1 (centres undefined)	inactive: -4.2%
CC(C)c1ccc(OP(C)(=O)Nc2ccc(SC(F)(F)F)cc2)cc1 (centres undefined)	inactive: 18.7%
CP(=O)(Nc1ccccc1F)Oc1ccccc1 (centres undefined)	inactive: -0.8%
O=[N+]([O-])c1cc([N+](=O)[O-])c(Nc2ccc(Cl)cc2)c([N+](=O)[O-])c1	active: 95.7%
COc1ccc2c(c1O)-c1c(O)c(OC)cc3c1[C@H](C2)[N+](C)(C)CC3.O=[N+]([O-])c1cc([N+](=O)[O-])c([O-])c([N+](=O)[O-])c1[O-]	inactive: -0.4%
O=C(OCCN1CCN(CCOCc2ccccc2)CC1)C(O)(c1ccccc1)c1ccccc1	inactive: 0.5%
O=C(OC1CN2CCC1CC2)c1ccc([N+](=O)[O-])cc1 (centres undefined)	inactive: 0.6%
COc1ccc(OP(C)(=O)Nc2ccc(SC(F)(F)F)cc2)cc1 (centres undefined)	inactive: -0.9%
CCOC(=O)c1ccc(NP(C)(=O)Oc2ccc(F)cc2)cc1 (centres undefined)	inactive: -0.5%
CCN(CC)CCCNc1ccccc1[N+](=O)[O-].O=[N+]([O-])c1cc([N+](=O)[O-])c(O)c([N+](=O)[O-])c1	inactive: -2.3%
CCCCCOc1ccc(NP(C)(=O)Oc2ccc(Cl)cc2Cl)cc1 (centres undefined)	inactive: 7%
O=[N+]([O-])c1cc([N+](=O)[O-])c(OC2CCCCC2O)c([N+](=O)[O-])c1 (centres undefined)	inactive: 1.5%
CP(=O)(Nc1ccccc1)Oc1ccc(F)cc1 (centres undefined)	inactive: -1.6%
CCN(CC)CCCOC(=O)C(O)(c1ccccc1)C1CCCCC1 (centres undefined)	inactive: -0.9%

SMILES	inhibition
Cc1c([N+](=O)[O-])cc([N+](=O)[O-])c(Br)c1[N+](=O)[O-]	inactive: -0.6%
COc1ccc(OP(C)(=O)Nc2ccccc2Br)cc1 (centres undefined)	inactive: 3.8%
COc1ccccc1OP(C)(=O)Nc1ccc(C)c(C)c1 (centres undefined)	inactive: 1%
Cc1cc(C)cc(OP(C)(=O)Nc2cccc(C(F)(F)F)c2)c1 (centres undefined)	inactive: -1.4%
O=C1C(O)=C([N+](=O)[O-])C(=O)C(O)=C1[N+](=O)[O-]	inactive: 0.5%
CCCCCCCCCCCCCCCC1C[N+](C)(C)CCOP(C)(=O)O1 (centres undefined)	inactive: -1.3%
CP(=O)(Nc1ccc(Cl)cc1Cl)Oc1ccccc1 (centres undefined)	inactive: -0.3%
CP(=O)(OCCOc1ccccc1)OCCOc1ccccc1	inactive: -2.3%
CN(C)CCOC(=O)C(O)(c1ccccc1)C1CCCC1 (centres undefined)	inactive: -1.1%
COc1ccc(OP(C)(=O)Nc2ccccn2)cc1 (centres undefined)	inactive: 0%
COc1ccccc1OP(C)(=O)Nc1ccc(Br)cc1 (centres undefined)	inactive: 0.6%
CCc1ccc(OP(C)(=O)O)cc1	inactive: -1.3%
COc1ccccc1OP(C)(=O)Nc1ccc(C)cc1C (centres undefined)	inactive: -0.2%
CP(=O)(Nc1ccccn1)Oc1ccccc1 (centres undefined)	inactive: -0.7%
Cc1c(NP(C)(=O)Oc2ccc(C(C)C)cc2)c(=O)n(-c2ccccc2)n1C (centres undefined)	inactive: 0.8%
O=[N+]([O-])c1cc([N+](=O)[O-])c(Nc2ccccn2)c([N+](=O)[O-])c1	inactive: 0%
CCc1ccc(OP(C)(=O)Nc2cccnc2)cc1 (centres undefined)	inactive: 0.9%
CP(=O)(Oc1ccccc1)N1CCOC1=O (centres undefined)	inactive: -0.7%
O=C(OCCCN1CCCC1)C(O)(c1ccccc1)C1CCCCC1 (centres undefined)	inactive: -1.4%
COc1ccccc1OP(C)(=O)Nc1c(C)n(C)n(-c2ccccc2)c1=O (centres undefined)	inactive: -2.4%
COc1ccc(OP(C)(=O)Nc2ccc(Br)cc2)cc1 (centres undefined)	inactive: 18.8%
CCN(CC)CC(O)COC(=O)C(O)(c1ccccc1)C1CCCCC1 (centres undefined)	inactive: -1.7%
CN(C)C(=O)c1c([N+](=O)[O-])cc([N+](=O)[O-])cc1[N+](=O)[O-]	inactive: 0.7%
CP(=O)(Nc1ccc(Cl)cc1)Oc1ccc(F)cc1 (centres undefined)	inactive: -1.8%
COc1ccccc1OP(C)(=O)Nc1ccccc1Br (centres undefined)	inactive: 2.2%

SMILES	inhibition
CC(C)(C)c1ccc(OP(C)(=O)O)cc1	inactive: 0%
CP(=O)(OC12CC3CC(CC(C3)C1)C2)OC12CC3CC(CC(C3)C1)C2	inactive: -0.4%
CCOC(=O)c1ccc(NP(C)(=O)Oc2ccc(Cl)cc2)cc1 (centres undefined)	inactive: 1.8%
COc1ccccc1OP(C)(=O)Nc1ccccc1 (centres undefined)	inactive: -0.2%
CP(=O)(Nc1ccccc1Br)Oc1ccccc1 (centres undefined)	inactive: 10.2%
CP(=S)(Nn1cnnc1)Oc1ccccc1 (centres undefined)	inactive: -2%
Cc1cc(C)cc(OP(C)(=O)Nc2ccc(SC(F)(F)F)cc2)c1 (centres undefined)	inactive: -6.1%
CP(=O)(NC(=O)Nc1ccccc1)Oc1ccccc1 (centres undefined)	inactive: -0.8%
CCc1ccc(OP(C)(=O)N2CCN(c3ccc([N+](=O)[O-])cc3)CC2)cc1 (centres undefined)	inactive: 14.5%
CP(=O)(Oc1ccccc1)OC(c1ccccc1)C(F)(F)F (centres undefined)	inactive: -1.9%
Cc1cccc(C)c1OP(C)(=O)Nc1ccc(SC(F)(F)F)cc1 (centres undefined)	inactive: -2.2%
Cc1ccc(Nc2c([N+](=O)[O-])cc([N+](=O)[O-])cc2[N+](=O)[O-])cc1	inactive: 18.7%
CP(=O)(Nc1ccc(SC(F)(F)F)cc1)Oc1ccc(Cl)cc1 (centres undefined)	inactive: 17.9%
CP(=O)(Nc1ccccn1)Oc1ccc(Cl)cc1 (centres undefined)	inactive: -0.5%
CCOP(C)(=S)SCC(=O)NC(C)C(=O)O (centres undefined)	inactive: -0.2%
CCOC(=O)c1ccc(NP(C)(=O)Oc2ccc(OC)cc2)cc1 (centres undefined)	inactive: 0.3%
O=[N+]([O-])c1cc([N+](=O)[O-])c(O)c([N+](=O)[O-])c1.c1ccc(Oc2ccncc2)cc1	inactive: 0.3%
CCN(CC)CCCOC(=O)C(O)(c1ccccc1)c1ccccc1	inactive: 0.6%
COc1ccccc1-c1ccccn1.O=[N+]([O-])c1cc([N+](=O)[O-])c(O)c([N+](=O)[O-])c1	inactive: 1%
Cc1cccc(C)c1OP(C)(N)=O (centres undefined)	inactive: -0.8%
CC(C)(C)c1ccc(OP(C)(=O)Nc2ccc(SC(F)(F)F)cc2)cc1 (centres undefined)	inactive: 13.2%
O=[N+]([O-])c1ccc2c(c1)C=Nc1ccccc1O2	inactive: -1%
O=[N+]([O-])c1cc([N+](=O)[O-])c(Nc2cccnc2)c([N+](=O)[O-])c1	active: 102%
COc1ccc(OP(C)(=O)Nc2cccc(F)c2)cc1 (centres undefined)	inactive: -1.6%
COc1ccccc1OP(C)(=O)Nc1cc(Cl)ccc1C (centres undefined)	inactive: 0.1%

SMILES	inhibition
Cc1cc(C)cc(OP(C)(N)=O)c1 (centres undefined)	inactive: -1.1%
CCOC(=O)c1ccc(NP(C)(=O)Oc2ccccc2)cc1 (centres undefined)	inactive: -0.5%
Cc1ccc(NP(C)(=O)Oc2ccccc2)c(C)c1 (centres undefined)	inactive: -2.8%
COc1ccccc1OP(C)(=O)Nc1ccc(C)cc1 (centres undefined)	inactive: 16.4%
O=C(O)c1cccc(Nc2c([N+](=O)[O-])cc([N+](=O)[O-])cc2[N+](=O)[O-])c1	inactive: 0.7%
CC1=NCCc2c1[nH]c1ccccc21.O=[N+]([O-])c1cc([N+](=O)[O-])c(O)c([N+](=O)[O-])c1	inactive: 2.6%
Cc1cc(C)cc(OP(C)(=O)Nc2ccc(C)cc2C)c1 (centres undefined)	inactive: 0.6%
CCOC(=O)c1ccc(NP(C)(=O)Oc2cc(C)cc(C)c2)cc1 (centres undefined)	inactive: -3.3%
COc1ccccc1OP(C)(=O)Nc1cccc(Br)c1 (centres undefined)	inactive: 1.2%
Cc1cc(C)cc(OP(C)(=O)Nc2ccccn2)c1 (centres undefined)	inactive: -1.5%
CP(=O)(Nc1cccc(Br)c1)Oc1ccccc1 (centres undefined)	inactive: -0.3%
Cc1ccc(C)c(NP(C)(=O)Oc2ccccc2)c1 (centres undefined)	inactive: -0.2%
CN(Cc1cccnc1)C(=O)COc1ccc(Cl)c(Cl)c1.O=[N+]([O-])c1cc([N+](=O)[O-])c(O)c([N+](=O)[O-])c1	inactive: -1.1%
O=[N+]([O-])c1cc([N+](=O)[O-])c(-n2nnc3ccccc32)c([N+](=O)[O-])c1	inactive: -1.8%
Cc1nc2ccc3ccccc3c2s1.O=[N+]([O-])c1cc([N+](=O)[O-])c(O)c([N+](=O)[O-])c1	inactive: -0.6%
O=[N+]([O-])c1cc([N+](=O)[O-])c(-c2cnn(-c3ccccc3)c2)c([N+](=O)[O-])c1	inactive: 7.1%
CCOC(=O)C(CC)C1=NC(C)(C)Cc2ccccc21.O=[N+]([O-])c1cc([N+](=O)[O-])c(O)c([N+](=O)[O-])c1 (centres undefined)	inactive: 1.9%
CC1=C2N=C(C=C3N=C(C(C)=C4[N-][C@@](C)([C@@H]5N=C1[C@](C)(CCC(=O)NC[C@@H](C)OP(=O)([O-])O[C@H]1[C@@H](O)[C@@H](n6cnc7cc(C)c(C)cc76)O[C@@H]1CO)[C@H]5CC(N)=O)[C@@](C)(CC(N)=O)[C@@H]4CCC(N)=O)[C@@](C)(CC(N)=O)[C@@H]3CCC(N)=O)C(C)(C)[C@@H]2CCC(N)=O.[C-]#N.[Co+3]	inactive: 4.5%
O=[N+]([O-])c1cc([N+](=O)[O-])c(Nc2nnnn2CCO)c([N+](=O)[O-])c1	inactive: 1.8%
CCCOc1ccc(NP(C)(=O)Oc2ccc(Cl)cc2)cc1 (centres undefined)	inactive: -0.6%
CP(=O)(Nc1ccc(SC(F)(F)F)cc1)Oc1ccccc1 (centres undefined)	inactive: 3.5%
COc1ccc(-c2ccccn2)cc1.O=[N+]([O-])c1cc([N+](=O)[O-])c(O)c([N+](=O)[O-])c1	inactive: -0.3%
COc1ccccc1OP(C)(=O)Nc1c(C)cccc1C (centres undefined)	inactive: -0.6%
CN1CCCCC1COC(=O)C1(O)c2ccccc2CCc2ccccc21 (centres undefined)	inactive: -0.2%
